In PubChem BioAssay AID651997 (Sanford-Burnham Center for Chemical Genomics, 2013):
The list shows a part of the results, in another mix than the full data. Some tests of the compounds listed are not included; inactive here does not mean inactive elsewhere. Active and inactive are the calls of the source.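 The calls were made as follows: active = inhibition of at least 50%; inactive = the rest.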

Chains of the proteins cited; added tags and fusions are not shown.
UniProt P32249, whole entry: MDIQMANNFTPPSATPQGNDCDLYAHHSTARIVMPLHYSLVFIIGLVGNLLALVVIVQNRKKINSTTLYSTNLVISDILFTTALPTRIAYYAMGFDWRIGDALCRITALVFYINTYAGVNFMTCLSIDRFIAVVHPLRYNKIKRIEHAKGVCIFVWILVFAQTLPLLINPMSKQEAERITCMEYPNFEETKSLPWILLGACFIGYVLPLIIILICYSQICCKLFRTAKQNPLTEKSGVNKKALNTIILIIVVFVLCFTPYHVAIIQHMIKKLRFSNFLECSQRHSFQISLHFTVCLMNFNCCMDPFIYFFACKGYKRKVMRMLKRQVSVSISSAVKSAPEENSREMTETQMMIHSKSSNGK

What follows are compounds tested against G-protein coupled receptor 183 (Homo sapiens) (UniProt P32249) (assay: EBI2 antagonist hit retest, beta-arrestin, confirmation, cell-based, single concentration, luminescence, 7a,25-OHC stimulation (AID 651997)). Conditions: 7a,25-OHC antagonism, at 5 µM, hits give high values.

Row | SMILES | inhibition
1 | CCCCC(CC)C(=O)N1CCN(C/C=C/c2ccccc2)CC1 (stereo unspecified) | inactive: 25.3%
